Organism: Mus musculus
Assay: Protecting activity after paraoxon induced toxicity.

Compound: CNC(=O)Oc1ccc2c(c1)[C@]1(C)CCN(C)[C@@H]1N2C
- ED50: 0.02 µmol/kg

— ChEMBL document CHEMBL1125045, “Hemicholinium-3 congeners as potential antagonists to organophosphate-induced toxicity” (1990)
